The structures appear in SMILES notation.

In experiment [1] the target is T1, Muscarinic acetylcholine receptor M1 and M3 (Homo sapiens) (UniProt P20309+P11229). Briefly: Selectivity ratio of Ki for human muscarinic M3 receptor to Ki for human muscarinic M1 receptor.
The target of experiment [2] is T1, Muscarinic acetylcholine receptor M1 and M3 (Homo sapiens). As to the kind of experiment: Selectivity ratio of Ki for human muscarinic M1 receptor to Ki for human muscarinic M3 receptor.

Take `CCN(CC)CCOC(=O)C(O)(c1ccccc1)c1c(C)cccc1C` (centres undefined): the Ratio Ki in experiment [1] was found to be 1.44; in experiment [2], 0.693.

On to `CCN(CC)CCOC(=O)C(O)(c1cccs1)C1CCCCC1` (centres undefined), for which the results for the Ratio Ki in experiment [1] and in experiment [2] were 4.95 and 0.202, respectively.

These data come from ChEMBL document CHEMBL2375349, “Discovery of subtype selective muscarinic receptor antagonists as alternatives to atropine using in silico pharmacophore modeling and virtual screening methods” (2013).
